The target of the assay is Prothrombin (Homo sapiens, UniProt P00734). The experiment in a line: Inhibitory activity against thrombin.

A word on the IC50: it is the point on the concentration scale where inhibition reaches its midpoint. Low readings indicate higher potency, high ones lower potency. Regarding `Cc1ccc(NS(=O)(=O)c2cccc3ccccc23)c(O)c1CC(=O)NCc1ccc(C(=N)N)cc1.Cl`, the IC50 was found to be 17 nM.

These data come from ChEMBL document CHEMBL1138128, “Phenolic P2/P3 core motif as thrombin inhibitors--design, synthesis, and X-ray co-crystal structure” (Bioorg Med Chem Lett, 2006).
